Curated experimental data: properties

Source: data files of OPERA 2.9 (Mansouri et al.), github.com/kmansouri/OPERA.

The melting point is given in degrees Celsius. The octanol-water partition coefficient is given as log10; larger values mean a more lipophilic compound. Solubility in water is on a log10 molar scale (set defined at 25 °C). Vapor pressure is log10 of mmHg; the set covers 15 to 30 °C, mostly 20 to 25 °C. The Henry's law constant is on a log10 scale in atm·m3/mol (set defined at 25 °C); higher favours air over water. The unbound fraction in human plasma runs from 0 (all bound) to 1 (all free).

{"smiles": "C[Si](C)(C)O[Si](C)(CCCOCC(O)CO)O[Si](C)(C)C", "stereo": "stereo not drawn", "logP (octanol/water)": "5.25", "log S (log10 mol/L)": "-4.436"}
{"smiles": "NCC(O)CO", "stereo": "stereo not drawn", "name": "1,2-Propanediol, 3-amino-", "MP (°C)": "-21", "log vapor pressure (log10 mmHg)": "-3.011"}
{"smiles": "CCc1occc(=O)c1O", "name": "2-Ethyl-3-hydroxy-4-pyrone", "MP (°C)": "88.45", "log vapor pressure (log10 mmHg)": "-2.824"}
{"smiles": "O=S(=O)(N(CCO)CCO)C(F)(F)C(F)(F)C(F)(F)C(F)(F)F", "name": "N,N-Bis(2-hydroxyethyl)perfluorobutanesulfonamide", "MP (°C)": "77.8", "logP (octanol/water)": "2.69", "log S (log10 mol/L)": "-2.839", "log vapor pressure (log10 mmHg)": "-3.66"}
{"smiles": "CC1CCC(C(C)(C)O)C(O)C1", "stereo": "stereo not drawn", "name": "p-Menthane-3,8-diol", "log S (log10 mol/L)": "-2.77", "log vapor pressure (log10 mmHg)": "-2.866", "log Henry constant (log10 atm·m3/mol)": "-9.368"}
{"smiles": "C=C(C)C(=O)OCCOCCOC", "name": "2-(2-Methoxyethoxy)ethyl methacrylate", "MP (°C)": "-76.6", "log S (log10 mol/L)": "-3.481"}
{"smiles": "CCCCCCCCCCCCCCCCCCCCCC(N)=O", "name": "Docosanamide", "log S (log10 mol/L)": "-6.832", "log Henry constant (log10 atm·m3/mol)": "-5.49"}
{"smiles": "CC(C)OC(=O)c1ccc(O)cc1", "name": "Isopropylparaben", "logP (octanol/water)": "2.613", "log S (log10 mol/L)": "-2.175"}
{"smiles": "FC(F)(F)c1ccc(Cl)c(Cl)c1", "name": "1,2-Dichloro-4-(trifluoromethyl)benzene", "logP (octanol/water)": "4.24", "log S (log10 mol/L)": "-4.268"}
{"smiles": "CN(C)CCC(=O)N(C)C", "name": "Propanamide, 3-(dimethylamino)-N,N-dimethyl-", "MP (°C)": "0.5", "log vapor pressure (log10 mmHg)": "1.176"}
{"smiles": "CN(C)CCN(C)CCO", "name": "2-{[2-(Dimethylamino)ethyl](methyl)amino}ethanol", "logP (octanol/water)": "0.264", "log vapor pressure (log10 mmHg)": "-0.365"}
{"smiles": "COC(=O)OC1CCC=CCCC1", "stereo": "stereo not drawn", "name": "Cyclooct-4-en-1-yl methyl carbonate", "logP (octanol/water)": "2.9", "log vapor pressure (log10 mmHg)": "-1.521"}
{"smiles": "Clc1cc(Cl)c(Oc2cc(Cl)c(Cl)c(Cl)c2Cl)cc1Cl", "name": "2,2',3,4,4',5,5'-Heptachlorodiphenyl ether", "MP (°C)": "89", "log S (log10 mol/L)": "-9.5"}
{"smiles": "CC(C)Nc1cccnc1N1CCN(C(=O)c2cc3cc(NS(C)(=O)=O)ccc3[nH]2)CC1", "name": "Delavirdine", "logP (octanol/water)": "2.8", "log S (log10 mol/L)": "-3.725", "fraction unbound": "0.02"}
{"smiles": "CCCCCCC(CCCC)COS(=O)(=O)[O-].[Na+]", "stereo": "stereo not drawn", "name": "Sodium 2-butyloctyl sulfate", "MP (°C)": "176", "logP (octanol/water)": "2.077"}
{"smiles": "Clc1cc(Cl)c(Cl)c(-c2c(Cl)c(Cl)c(Cl)c(Cl)c2Cl)c1Cl", "name": "2,2',3,3',4,5,5',6,6'-Nonachlorobiphenyl", "MP (°C)": "204", "log vapor pressure (log10 mmHg)": "-6.035"}
{"smiles": "CN(C)c1ccc(C(O)(c2ccc(N(C)C)cc2)c2ccc(Nc3ccccc3)c3ccccc23)cc1", "logP (octanol/water)": "6.39", "log S (log10 mol/L)": "-6.989"}
{"smiles": "CC1=CCC(CC#N)C1(C)C", "stereo": "stereo not drawn", "name": "3-Cyclopentene-1-acetonitrile, 2,2,3-trimethyl-", "MP (°C)": "-33.5", "logP (octanol/water)": "2.96", "log S (log10 mol/L)": "-2.648", "log vapor pressure (log10 mmHg)": "-0.245"}
{"smiles": "Cc1nn(-c2ccccc2)c(=O)[c-]1/N=N/c1cc(Cl)c(S(N)(=O)=O)cc1[O-].Cc1nn(-c2ccccc2)c(=O)[c-]1/N=N/c1cc(Cl)c(S(N)(=O)=O)cc1[O-].[Cr+3].[Na+]", "logP (octanol/water)": "1.33", "log S (log10 mol/L)": "-2.692", "log vapor pressure (log10 mmHg)": "-5.973"}
{"smiles": "COc1ccc(CCC(C)=O)cc1", "name": "4-(4-Methoxyphenyl)-2-butanone", "logP (octanol/water)": "2", "log S (log10 mol/L)": "-1.919", "log vapor pressure (log10 mmHg)": "-1.108"}
{"smiles": "CCC(F)(F)C(F)(F)C(F)(F)C(F)(F)C(F)(F)C(F)(F)F", "name": "1-(Perfluorohexyl)ethane", "logP (octanol/water)": "5.3", "log S (log10 mol/L)": "-6.843", "log vapor pressure (log10 mmHg)": "1.461"}

Extract of 2 entries:

{"smiles": "CCCCCCC(CCCC)COS(=O)(=O)[O-].[Na+]", "stereo": "stereo not drawn", "name": "Sodium 2-butyloctyl sulfate", "MP (°C)": "176", "logP (octanol/water)": "2.077"}
{"smiles": "CC(C)Nc1cccnc1N1CCN(C(=O)c2cc3cc(NS(C)(=O)=O)ccc3[nH]2)CC1", "name": "Delavirdine", "logP (octanol/water)": "2.8", "log S (log10 mol/L)": "-3.725", "fraction unbound": "0.02"}

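OPERA's authors assembled the values from existing databases and did not measure them anew. A listed value is a point estimate from one report or more. Method, purity and exact conditions of the single measurements are not given. The measured form (salt, isomer or mixture) is not always the one drawn. Some upstream entries may be estimates or bounds without being marked so.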